Measurements: PMC11852049, “Impact of Hydrophobic, Hydrophilic, and Mucus-Binding Motifs on the Therapeutic Potential of Ceftazidime Analogs for Pulmonary Administration” (Antibiotics, 2025)

Tested on: human bronchial epithelial cell air–liquid interface culture
Experiment: Transepithelial transport assay (Papp), HBEC air–liquid interface cultures on Transwells
Conditions: for Papp compared to ceftazidime: paired two-tailed t-test; for reduction in Papp / transepithelial transport rate versus ceftazidime: HBEC ALI cultures

Q: With `CC(C)(O/N=C(/C(=O)N[C@@H]1C(=O)N2C(C(=O)[O-])=C(C[n+]3ccccc3)CS[C@H]12)c1csc(N)n1)C(=O)NCCNc1ccnc(N)n1` [Compound 14] as the compound, how does the “Papp compared to ceftazidime” value (compound set 2) read?
A: trended lower

Q: With `CC(C)(O/N=C(/C(=O)N[C@@H]1C(=O)N2C(C(=O)[O-])=C(C[n+]3ccccc3)CS[C@H]12)c1csc(N)n1)C(=O)NCCOCCOCCOCCOCCOCCNc1ccnc(N)n1` [Compound 15, PEG5-pyrimidin-2-amine-ceftazidime] as the compound, how does the “reduction in Papp / transepithelial transport rate versus ceftazidime” value read?
A: 40–50%

Q: And the “Papp compared to ceftazidime” value (compound set 1)?
A: significantly (p < 0.05) lower

Q: For `CCCCNC(=O)C(C)(C)O/N=C(/C(=O)N[C@@H]1C(=O)N2C(C(=O)[O-])=C(C[n+]3ccccc3)CS[C@H]12)c1csc(N)n1` [Compound 1, n-butyl-ceftazidime], which “reduction in Papp / transepithelial transport rate versus ceftazidime” value is on record?
A: 40–50%

Q: And the “Papp compared to ceftazidime” value (compound set 1)?
A: significantly (p < 0.05) lower

Q: Which results are given for `CC(C)(O/N=C(\C(=O)N[C@@H]1C(=O)N2C(C(=O)[O-])=C(C[n+]3ccccc3)CS[C@H]12)c1csc(N)n1)C(=O)O` [Ceftazidime pentahydrate, ceftazidime pentahydrate, reference compound]?
A: Papp x10-6 (compound set 1, lung donor N715): 3.17 x10-6; Papp x10-6 (compound set 1, lung donor N716): 3.37 x10-6; Papp x10-6 (compound set 1, lung donor N720): 3.54 x10-6; Papp x10-6 (compound set 2, lung donor KC29): 1.86 x10-6; Papp x10-6 (compound set 2, lung donor L2): 2.13 x10-6; Papp x10-6 (compound set 2, lung donor L224): 3.63 x10-6

Q: Which “reduction in Papp / transepithelial transport rate versus ceftazidime” value does the source give for `COCCOCCOCCOCCOCCOCCOCCOCCNC(=O)C(C)(C)O/N=C(/C(=O)N[C@@H]1C(=O)N2C(C(=O)[O-])=C(C[n+]3ccccc3)CS[C@H]12)c1csc(N)n1` [Compound 9] here?
A: 40–50%

Q: And the “Papp compared to ceftazidime” value (compound set 1)?
A: significantly (p < 0.05) lower

Q: How did the “Papp compared to ceftazidime” value (compound set 2) turn out when `CC(C)(O/N=C(/C(=O)N[C@@H]1C(=O)N2C(C(=O)[O-])=C(C[n+]3ccccc3)CS[C@H]12)c1csc(N)n1)C(=O)NCCNC(=O)c1ccc(B(O)O)cc1` [Compound 18] was run?
A: trended lower
